These results are taken from ChEMBL document CHEMBL5143532, “Discovery of GCC5694A: A potent and selective sodium glucose co-transporter 2 inhibitor for the treatment of type 2 diabetes” (Bioorg Med Chem Lett, 2022).

This experiment in a line: Selectivity index, ratio of IC50 for human SGLT1 expressed in CHO cells to IC50 for human SGLT2 expressed in CHO cells. Format: cell-based.

Take `CC(C)c1ccc(Cc2cc([C@@H]3O[C@H](CO)[C@@H](O)[C@H](O)[C@H]3O)c3c(c2Cl)OCC3)cc1`: the Ratio IC50 is 6250.

Turning to `COc1ccc(Cc2cc([C@@H]3O[C@H](CO)[C@@H](O)[C@H](O)[C@H]3O)c3c(c2Cl)CCC3)cc1`, the Ratio IC50 was found to be 55.

On to `COc1ccc(Cc2cc([C@@H]3O[C@H](CO)[C@@H](O)[C@H](O)[C@H]3O)c3c(c2Cl)OCCC3)cc1`, for which the Ratio IC50 was determined as 37.
